The text below walks through data of patent US20040109845A1, “Method for inhibiting articular cartilage matrix calcification” (priority 2001, published 2004).

The subject of data set [1] is TGase activity (tTGase and Factor XIIIa) in meniscal cells. Kind of data set: TGase activity in cultured knee meniscal cells (BP incorporation into N,N-dimethylcasein). The data set is classed as cell-based, human. As to conditions: 72 hrs. On the procedure: Meniscal cells were maintained in DMEM high glucose and supplemented with 10% FCS, 1% L-glutamine, 100 units/ml Penicillin and 50 μg/ml Streptomycin (Omega Scientific, Tarzana, Calif.) and cultured at 37° C. with 5% CO2. In monolayer cell culture studies involving stimulation by TGFE[…] or IL-1, the cells were placed in DMEM high glucose containing 1% FCS, 1% L-glutamine, 100 units/ml Penicillin and 50 μg/ml Streptomycin. In all other studies, the cells were cultured in complete medium (as described above). Only primary or first passage meniscal cells were studied. Type II collagen and aggrecan expression were confirmed in each meniscal cell preparation using RT-PCR, as previously described, and employing G3PDH as a control (28).
TGase activity was measured by modifications to a previously described method (35). Specifically, we coated 96 well ImmunoModule plates (Nunc, Rochester, N.Y.) with 200 μl of 20 mg/ml N,N-dimethylcasein for 1 hr at 23° C. […] Readings at OD410 were taken over 15 minutes. […] TGase activity was designated as the amount of BP incorporated into casein (per μg cellular DNA, determined chromogenically following precipitation in perchlorate (28), or, where indicated, per μg protein, determined as previously described (28)). […]

The test system of data set [2] is NO release by meniscal cells. Kind of data set: NO release by cultured meniscal cells (Greiss reaction). The data set is classed as cell-based, human. As to conditions: 72 hrs, IL-1 or TNFα 10 ng/ml, NMMA 10 μM or A20 transfection. How it is done: NO release by 3×10^5 meniscal cells, which were plated and stimulated with TNFα (10 ng/ml) or IL-1 (10 ng/ml), with or without 10 μM NMMA (FIG. 8A), for 72 hrs was studied. Conditioned media were collected and 50 μl aliquots analyzed for NO release using the Greiss Reaction, with results expressed as μmoles released per μg DNA. For the studies in FIG. 8B, the meniscal cells were transfected with A20 or empty plasmid (where indicated), using the procedure described in the Methods, which included use of Lipofectamine Plus and a prior 3 minute incubation with 0.00015% digitonin to optimize the transfection. After 72 hrs of incubation with TNFα or IL-1, the conditioned media were collected from the cultured, transfected cells and analyzed in triplicate for NO release, as above. Data pooled from 4 normal donors studied in triplicate for FIGS. 8A and 8B. *p<0.05.
PPi was determined by differential adsorption on activated charcoal of UDP-D-[6-^3H] glucose (Amersham, Chicago, Ill.) from the reaction product 6-phospho [6-^3H] gluconate (28). Units of NTPPPH and AP were designated as micromoles of substrate hydrolyzed per hour (per μg DNA in each sample) (28). NO release by cultured meniscal cells was measured using the Greiss reaction (33). Concentrations or specific activities of PPi, NTPPPH, and AP were equalized for cellular DNA concentrations in each well.

“Also recorded” adds a separate entry of the source.

With “A20: zinc finger protein A20, expressed by transfection of full length human A20 cDNA in pcDNA4/HisMax”, the “Effect on TGase activity induced by Noc-12 or Sin-1” value in data set [1] (A20-transfected meniscal cells, Sin-1 10 μM, Noc-12 25 μM) was “did not inhibit TGase activity”. Besides, in data set [1] (meniscal cells, IL-1 or TNFα 10 ng/ml, NMMA 10 μM or A20 transfection), the “Effect on IL-1 and TNFα-induced TGase activity” value was “attenuated LL-1 and TNFα-induced TGase activity; also recorded: suppresses the ability of IL-1 and TNFα to induce TGase activity”. Besides, in data set [2], the “Effect on IL-1 and TNFα-induced NO release” value was “attenuated IL-1 and TNFα-induced NO release; also recorded: suppresses IL-1 and TNFα-induced NO release”.
